From patent US7186413B2, “Hydrogels and water soluble polymeric carriers for drug delivery” (The Regents of the University of Michigan, priority 1998, dated 2007)
Where two headings read alike, the source gives them in different places.

Details: for release rate: PAG hydrogel with heparin and heparin-AAD

Q: Which results are given for VEGF?
A: release rate (first three days): 7 % VEGF per day; release rate (next 17 days): approximately 1 % VEGF per day; initial burst of drug released during the first two days (cross-linked PAG hydrogel without heparin): around 45%; sustained release rate (cross-linked PAG hydrogel without heparin, following 25 days): 1 % drug per day; drug released during the first two days (heparin/sepharose gel within the matrix): Less than 15%; sustained release rate (heparin/sepharose gel within the matrix, next 25 days): 1 % drug per day
